Consider 1 compound from ChEMBL document CHEMBL1151866, “Design and synthesis of novel delta opioid receptor agonists and their pharmacologies” (Bioorg Med Chem Lett, 2009).

By UniProt entry, the sequences of proteins in these tests, tags left out.
UniProt P33535, whole entry: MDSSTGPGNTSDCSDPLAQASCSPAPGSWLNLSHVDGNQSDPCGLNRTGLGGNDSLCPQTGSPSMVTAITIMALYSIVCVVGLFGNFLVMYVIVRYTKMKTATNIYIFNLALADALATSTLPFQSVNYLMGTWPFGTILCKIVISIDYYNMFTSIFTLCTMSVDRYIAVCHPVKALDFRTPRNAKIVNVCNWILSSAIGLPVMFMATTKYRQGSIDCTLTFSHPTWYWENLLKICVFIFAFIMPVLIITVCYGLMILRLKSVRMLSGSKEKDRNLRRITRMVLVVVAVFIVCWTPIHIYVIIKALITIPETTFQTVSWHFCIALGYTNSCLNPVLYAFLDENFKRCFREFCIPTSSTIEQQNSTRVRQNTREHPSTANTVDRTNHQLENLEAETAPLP

This assay deals with Mu-type opioid receptor (Rattus norvegicus, UniProt P33535). Kind of assay: Displacement of [3H]DAMGO from mu opioid receptor in rat cerebellum membrane. Format: cell membranes. (In general: Loss of bound radioactivity is the signal in a displacement assay; it reports binding, not function.)

SMILES strings stand for the structures. pKi: −log10 of the molar value.

Usually pKi stands for the negative decadic logarithm of the Ki, by convention in mol/L. Low readings indicate a large Ki, high ones a small Ki. As to `Oc1ccc2c3c1O[C@H]1c4[nH]c5ccccc5c4C[C@@]4(O)[C@@H](C2)N(CC2CC2)CC[C@]314` [NALTRINDOLE], the negative-log Ki (pKi) is 7.63.
